From publication PMC9092470, “Understanding p300-transcription factor interactions using sequence variation and hybridization†” (RSC Chemical Biology, 2022)

Chains of the proteins cited; added tags and fusions are not shown. Residues count along the entry.
UniProt Q09472, 330-420: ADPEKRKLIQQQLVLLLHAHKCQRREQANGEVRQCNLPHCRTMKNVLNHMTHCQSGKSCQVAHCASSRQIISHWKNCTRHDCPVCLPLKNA

Tests used:
[1] = target: T1, p300 (CH1 domain, residues 330–420) (Homo sapiens, UniProt Q09472); assay: ITC of chemically synthesized HIF-1α, CITED2 and CITIF peptides binding to p300; details: 35 °C, 40 mM sodium phosphate, pH 7.5, 100 mM NaCl, 1 mM DTT, 5 μM protein in cell, 60 μM ligand in syringe
T1 construct: GST (N, cleaved yes); made in house; host or cells: E. coli BL21 pLysS (pGEX-4T1-p300)
Protocol: Raw ITC (upper) data and fitted thermogram (lower) (40 mM sodium phosphate, pH 7.5 100 mM NaCl, 1 mM DTT buffer using 5 μM protein in the cell and 60 μM ligand in the syringe at 35 °C) error bars represent the estimated integration errors; (b) Thermodynamic signatures for each interaction.
Figure S8 (a) Sequences of the truncated CITED2 peptides and isothermal titration […]
µM peptide in the syringe. All measurements were carried out 40 mM sodium phosphate, pH 7.5 100 mM NaCl, 1 mM DTT buffer at 35°C. Error bars represent the estimated integration […]
Table S2 Thermodynamic parameters for shortened CITED2 sequences. 68% confidence intervals for the fitting are shown in brackets. Data fitted to a single binding site model, fixed 1:1 stoichiometry with incompetent protein fraction as an adjustable parameter. […]
Isothermal titration calorimetry […]
(§1) instrument using 3-5 µM protein in the cell and 40-60 µM ligand in the syringe at 35°C, using 5 µl injections and 180 s spacing between injections, for 40 injections. […] Data were analysed using NITPIC3 and fitted using SEDPHAT4 to a single binding site model (fixed 1:1 stoichiometry), with baseline and incompetent protein fraction as adjustable parameters. 68 % confidence intervals for the fitted values were determined using the automatic confidence interval search implemented in SEDPHAT. […]

[2] = target: T1, p300 (CH1 domain, residues 330–420); assay: ITC of expressed HIF-1α, CITED2 and CITIF peptides binding to p300; details: conditions as Fig. S6 (40 mM sodium phosphate, pH 7.5, 100 mM NaCl, 1 mM DTT, 35°C)
Protocol: We hypothesized that it would be possible to enhance the affinity of HIF-1α for p300 by hybridising key regions of both CITED2 and HIF-1α (see later). We first measured the affinity of the parent peptides. A particular difficulty in comparing these peptide sequences is the different length used in different studies.[28,33,35,36] […]
data and fitted thermogram (lower) (40 mM sodium phosphate, pH 7.5 100 mM NaCl, 1 mM DTT buffer using 5 µM protein in the cell and 60 µM ligand in the syringe at 35°C); (b) Thermodynamic signatures for each interaction. […]
Isothermal titration calorimetry
Prior to ITC measurement p300 CH1 was dialysed or run on S75 column in the buffer used for titration, and the same buffer was used to dissolve the pure peptides. Experiments with […]
as §1

[3] = target: T2, CITED2224-259 /p300 complex (Homo sapiens, UniProt Q09472); assay: Competition ITC: HIF-1α786-826 titrated to preformed CITED2224-259/p300 complex; type: binding; details: titrated to CITED2224-259/p300 complex, treat with caution
T2 construct: GST (N, cleaved yes); made in house; host or cells: p300: E. coli BL21 pLysS (pGEX-4T1-p300); CITED2 peptide: chemical synthesis
Protocol: Figure S7Apparent KD fits for the competition ITC experiment using a competition interaction model. p300/ligand complexes were prepared by titrating the appropriate ligand first to p300 in the cell using 3-5 µM protein concentration, the titration stopped when it reached close to […]
(Table S5) Then it was titrated with the competitor ligand using 30-60 µM concentration in the syringe, 5 or 10 uL injections with 180-240 s spacing. Background titrations were performed without p300 in the cell and subtracted from the measurements. Apparent KD,app and ΔH app values data were fitted to a competition model (Fig. S17) in SEDPHAT. Error bars represent the estimated integration errors.
(1 picture or pasted object on this page, not shown here) […]
as §1

[4] = 68% confidence interval in brackets

Compound: CC[C@H](C)[C@H](NC(=O)[C@@H]1CCCN1C(=O)[C@H](C)NC(=O)[C@H](CC(N)=O)NC(=O)[C@@H](NC(=O)[C@H](CCC(=O)O)NC(=O)[C@H](CS)NC(=O)[C@H](CC(=O)O)NC(=O)[C@H](Cc1ccc(O)cc1)NC(=O)[C@H](CO)NC(=O)[C@@H](NC(=O)[C@H](CC(C)C)NC(=O)[C@H](CCC(N)=O)NC(=O)[C@@H]1CCCN1C(=O)[C@H](CC(C)C)NC(=O)CNC(=O)[C@H](CO)NC(=O)[C@H](CCC(=O)O)NC(=O)[C@H](CC(=O)O)NC(=O)[C@H](CCSC)NC(=O)[C@H](CO)NC(C)=O)[C@@H](C)O)C(C)C)C(=O)N[C@@H](CCC(N)=O)C(=O)NCC(=O)N[C@@H](CO)C(=O)N[C@@H](CCCNC(=N)N)C(=O)N[C@@H](CC(N)=O)C(=O)N[C@@H](CC(C)C)C(=O)N[C@@H](CC(C)C)C(=O)N[C@@H](CCC(N)=O)C(=O)NCC(=O)N[C@@H](CCC(=O)O)C(=O)N[C@@H](CCC(=O)O)C(=O)N[C@@H](CC(C)C)C(=O)N[C@@H](CC(C)C)C(=O)N[C@@H](CCCNC(=N)N)C(=O)N[C@@H](C)C(=O)N[C@@H](CC(C)C)C(=O)N[C@@H](CC(=O)O)C(=O)N[C@@H](CCC(N)=O)C(=O)N[C@H](C(=O)N[C@@H](CC(N)=O)C(N)=O)C(C)C [HIF-1α786–826]
- ΔS, synthetic peptides [1]: −50 cal mol^−1 K^−1
- ΔH, synthetic peptides [1, 4]: -25.8 kcal/mol
- ΔS, expressed peptides [2]: −73.2 cal mol^−1 K^−1
- ΔH, expressed peptides [2, 4]: -32.7 kcal/mol
- ΔHapp, HIF-1α [3]: -22.3 kcal/mol
- ΔSapp, HIF-1α [3]: -38.8 cal/mol/K
